According to patent publication US6979460B1, “Vinyl ether lipids with cleavable hydrophlic headgroups” (Purdue Research Foundation, priority 1999, dated 2005):

Columns and labels:
[1] = micellar solution, 37° C., bacteriochlorophyll a, air-saturated buffer pH 7.4, HPLC
[2] = 98:2 DOPE:CVEP:Bchla vesicles
Protocol: (§1) DOPE and the labile PEG lipid were co-dissolved in chloroform that had been prefiltered through a 2.53 cm plug of anhydrous sodium carbonate to remove traces of acid and water from the solvent. This solution was evaporated under a gentle stream of N2 and further dried under vacuum (<200 μ, 4 h). Vesicles were formed by hydrating the lipid film in the presence of 50 mM calcein using five LN2 freeze-thaw-vortex cycles. This suspension was then extruded at 50° C. through two 100 nm track-etch polycarbonate membrane filters. Extraliposomal calcein was removed using a single pass through a 40 cm Sephadex G-50 gel column equilibrated with 150 mM NaCl. The fraction eluting at the void volume was collected and stored at 8° C. until use. Light-sensitive vesicles were prepared in the same manner, except that bacteriochlorophyll a (Bchl) was codissolved in the chloroform lipid solution. Other agents or mixtures of agents, such as therapeutic compounds or diagnostic agents, are substituted for calcein in the above protocol resulting in liposomal encapsulation of the substituted agent.
(§2) Vesicle release of the liposomes made in example 4 above, was monitored at 37° C. as a function of time using the calcein fluorescence dequenching assay. Acid-trigged release was initiated by dilution of the vesicles into an acidic buffer solution as described by Gerasimov et al. Light-triggered release was promoted by aerobic illumination (800 nm, 1 W) of a continuously stirred 1 cm quartz cuvette with a SDL 820 diode laser coupled to an optical fiber. The fiber was mounted perpendicular to the cuvette surface to produce a spot of ˜3 mm diameter. Both triggering methods were conducted either in the absence or presence of ten-fold excess of egg phosphatidylcholine (EPC) vesicles as a membrane “sink”.

[3] = micellar solution, 37° C., pH 4.5, 20 mM citrate buffered saline, HPLC
[4] = Acid-triggered calcein release from DOPE:vinyl ether lipid vesicles (calcein fluorescence dequenching assay); format: physicochemical; conditions: for calcein contents leakage: 98:2 and 96:4 DOPE:CVEP vesicles
Protocol: as §1, §2

4-o-Cholesteryl-(3Z-buten-1-yl)-polyethylene [125] glycolate [CVEP]
disappearance due to photolysis, compared with BVEP [1]: faster | calcein release on irradiation ([2]; pH 7.4, 800 nm illumination, absence of sink EPC): slow release | observed calcein release rate on irradiation ([2]; pH 7.4, 800 nm illumination, sink lipid present (vs absent)): increased significantly | background (dark) calcein leakage ([2]; pH 7.4, dark, even in the presence of sink EPC): not significant | disappearance due to acid-catalyzed hydrolysis, compared with BVEP [3]: faster | t50% release ([4]; 98:2 DOPE:lipid vesicles (identical loadings), pH 4.5, 37° C.): 220 min | calcein contents leakage ([4]; pH 4.5, 37° C., in the absence of sink EPC): very little contents leakage | calcein contents leakage ([4]; pH 4.5, 37° C., in the presence of sink EPC): calcein leakage occurs | calcein contents leakage ([4]; pH 7.4, 37° C., sink EPC present or not): very little contents leakage | dependence of rate of calcein leakage on vesicle CVEP content ([4]; DOPE:CVEP vesicles, pH 4.5, sink conditions): lower loadings producing more rapid release rates
